# Literature values in patent US5641744A, “Treatment of diabetes mellitus” (Amylin Pharmaceuticals, Inc., priority 1987, dated 1997).
# Columns and labels:
# [1] = administered to rats
# islet B cells = conditions: a number of model systems
substance,measurement,setting,value
"calcitonin gene related peptide (ACDTATCVTHRLAGLLSRSGGVVKNNFVPTNVGSKAF; Calcitonin gene-related peptide 1; UniProt P06881 83-119, looked up) [CGRP, peptide structurally similar to amylin; human CGRP-2 has 46% identity]",effects on blood pressure and blood catecholamine levels,[1],significant effects
same,rate of glucose induced insulin secretion,islet B cells,modulate
